Legend:
soluble human CD73 [1] = target: T1, soluble human CD73 (Homo sapiens, UniProt P21589); assay: AMP hydrolysis by soluble CD73, DPEA-Napht-Azide fluorescence assay; assay type: biochemical; conditions: 50 ng CD73, 30 min pre-incubation with 10 μl hcAb supernatant, 1 mM AMP
T1 construct: The ectodomain of CD73 (aa 27-549) was expressed as a recombinant protein with a C-terminal His6× tag; His6 (C); made in house; host or cells: transiently transfected HEK cells
T1 sequence (P21589 27-549): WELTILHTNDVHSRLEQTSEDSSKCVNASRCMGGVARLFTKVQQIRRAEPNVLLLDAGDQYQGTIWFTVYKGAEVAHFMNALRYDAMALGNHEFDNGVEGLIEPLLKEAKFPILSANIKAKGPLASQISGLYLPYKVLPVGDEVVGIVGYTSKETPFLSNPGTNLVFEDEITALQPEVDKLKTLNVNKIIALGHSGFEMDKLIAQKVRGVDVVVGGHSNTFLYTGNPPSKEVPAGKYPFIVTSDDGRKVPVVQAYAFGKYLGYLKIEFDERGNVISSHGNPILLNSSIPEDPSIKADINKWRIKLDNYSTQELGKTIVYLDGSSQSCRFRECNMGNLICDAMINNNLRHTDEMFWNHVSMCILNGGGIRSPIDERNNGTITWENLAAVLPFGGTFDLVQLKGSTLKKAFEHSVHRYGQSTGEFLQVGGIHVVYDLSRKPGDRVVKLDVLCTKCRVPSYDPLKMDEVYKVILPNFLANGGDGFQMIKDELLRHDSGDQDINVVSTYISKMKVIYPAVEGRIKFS
Protocol: Recombinant human CD73 (50 ng) was pre-incubated for 30 min with hcAbs at RT in 96 well plates before addition of AMP and DPEA-Napht-Azide. Fluorescence signals were detected every 50 seconds for 30 repeats. ARFU values (>10^3/min) were calculated for a 10 min interval during the linear phase (from 5 min to 15 min) using Prism software (Graphpad). A non-specific rabbit IgG hcAb was used as control.
• 4.1 CD73 catalyzes the hydrolysis of AMP to adenosine. This reaction can be monitored by the shift in fluorescence intensity of DPEA-Napht-Azide. This property was used to determine whether hcAbs could interfere with the enzymatic activity of CD73. Soluble recombinant human CD73 (50 ng) was pre-incubated for 30 min with Nbs or hcAbs (10 μl HEK-6E cell supernatant containing 10-100 μg/ml hcAb) at RT in 96 well plates before addition of AMP (Sigma) to a final concentration of 1 mM and of DPEA-Napht-Azide to a final concentration of 50 μM. • 4.2 Fluorescence signals were recorded in white Nunc MicroWell plates (Nunc, 136101) on a Victor III plate reader (Perkin Elmer) (Exicitation filter: F485, Emission Filter: F535; CW-Lamp energy: 40000, counting time: 0.1 s). Data analyses were performed using Prism (Graphpad). […]

human CD73 = target: T2, human CD73 (Homo sapiens, UniProt P21589); assay: Flow cytometry binding of rabbit IgG hcAbs to human CD73-transfected HEK cells; conditions: family representative clone; h = binds human CD73, m = binds mouse CD73
T2 construct: expressed in transfected cells; stably transfected in method 5.1)
T2 sequence (P21589 27-549): T1 sequence (P21589 27-549)
Protocol: HEK cells were co-transfected with expression vectors for green fluorescent protein (GFP) and human CD73, mouse CD73, and a control cell surface protein (CD39). 48 h after transfection, cells were incubated with HEK cell supernatants containing the indicated rabbit IgG hcAbs. Bound antibodies were detected with PE-conjugated anti rabbit IgG secondary antibody.
• 5.1 Untransfected HEK293 cells and HEK293 cells stably transfected with human or mouse CD73 were incubated for 30 min with HEK-6E cell supernatants containing rabbit IgG hcAbs (diluted 1:10 in PBS/0.1% BSA). Following washing with PBS/0.1% BSA, bound antibodies were detected with PE-conjugated goat anti-rabbit IgG polyclonal antibody (711-116-152 Dianova, Hamburg). • 5.2 For dissociation analyses, two separate aliquots of CD73-transfected cells were incubated either with Cell Proliferation Dye eFluor 450 (eBioscience) or with hcAbs for 20 min at RT. […] Cells were washed and analyzed by flow cytometry on a BD-FACS Canto. Data were analyzed using the FlowJo software (Treestar).
The binding specificities of the purified hcAbs were determined by flow cytometry using HEK cells transiently co-transfected with expression vectors for GFP and either mouse CD73, human CD73 or a control protein (CD39). […] The cells were resuspended in PBS and analyzed by flow cytometry on FACS Canto or FACS Celesta (BD Biosciences, Heidelberg). […]

[2] = target: T3, human CD73-transfected HEK cells (Homo sapiens, UniProt P21589); assay: Epitope binning by flow cytometry (human IgG hcAb blocks rabbit IgG hcAb); assay type: binding; conditions: epitope assignment on human CD73 from binning
T3 construct: expressed in transfected cells; stably transfected in method 5.1)
T3 sequence (P21589 27-549): T1 sequence (P21589 27-549)
Protocol: • 5.1 Untransfected HEK293 cells and HEK293 cells stably transfected with human or mouse CD73 were incubated for 30 min with HEK-6E cell supernatants containing rabbit IgG hcAbs (diluted 1:10 in PBS/0.1% BSA). Following washing with PBS/0.1% BSA, bound antibodies were detected with PE-conjugated goat anti-rabbit IgG polyclonal antibody (711-116-152 Dianova, Hamburg). • 5.2 For dissociation analyses, two separate aliquots of CD73-transfected cells were incubated either with Cell Proliferation Dye eFluor 450 (eBioscience) or with hcAbs for 20 min at RT. […] The dissociation of hcAbs from the target cells and association with the eFluor 450 labeled cells was analyzed by flow cytometry using the FlowJo software (Treestar). • 5.3 For epitope analyses, cells were preincubated with excess human IgG hcAbs (10 μl HEK-6E cell supernatant/100 μl PBS/0.1% BSA) for 30 min at RT before addition of Nb-rabbit IgG hcAbs (1 μl HEK-6E cell supernatant/100 μl PBS/0.1% BSA) and further incubation for 20 min at RT and staining with PE-conjugated anti-rabbit polyclonal antibody (711-116-152 Dianova, Hamburg). Cells were washed and analyzed by flow cytometry on a BD-FACS Canto. Data were analyzed using the FlowJo software (Treestar). […]

soluble human CD73 [3] = target: T1, soluble human CD73; assay: Off-rates of soluble CD73 from immobilized Nb-rbIgG hcAb on Octet BLI; assay type: binding; conditions: soluble human CD73 ectodomain 200 ng/μl as analyte; Nb-rbIgG hcAb immobilized on protein A biosensor
Protocol: The binding off-rate constants of bivalent hcAbs to human and mouse CD73 protein were determined by […] kinetic analysis on Octet RED96 (ForteBio). Immobilization of rabbit IgG hcAbs on the protein A-biosensor surface was done in HEK-6E cell supernatant, and regeneration of analytes was done with 100 mM Glycin pH=2.5. Recombinant mouse or human CD73 ectodomain was used as analytes and tested at a saturating dose of 200 ng/μl. Sensorgrams were fitted using least square regression in association than dissociation Model in Prism8 (Graphpad). The results are depicted in Tables 2 and 3. Off-rates ranged from 2E^−3 to 4 E^−5 1/s.

[4] = target: T4, native CD73 on the cell surface of peripheral blood leukocytes (PBMCs) (Homo sapiens, UniProt P21589); assay: Flow cytometry binding of hcAbs to native CD73 on blood leukocytes; conditions: lymphocyte gate, co-stained for CD3 and CD19
T4 construct: endogenous in cells; host or cells: human PBMCs (B and T lymphocytes)
T4 sequence (P21589 27-549): T1 sequence (P21589 27-549)
Protocol: Purified hcAbs were analysed for binding to native CD73 on the cell surface of peripheral blood leukocytes (PBMCs) by flow cytometry. To this end purified human PBMCs were incubated for 30 min at RT with 10 μl of rabbit hcAb-containing HEK-6E cell supernatants and bound antibodies were detected with a FITC conjugated anti rabbit IgG secondary antibody. To distinguish between B lymphocytes most of which express high levels of cell surface CD73, and T lymphocytes a subset of which express moderate levels of cell surface CD73, cells were co-stained with PE-conjugated mouse anti-human CD3 mAb (UCHT1) and a PerCP/Cy5.5-conjugated mouse anti-human CD19 mAb (HIB19). After washing the cells, cells were analyzed by flow cytometry. A hcAb binding only to murine CD39 (SB30) was used as a negative control. As positive control, a FITC-conjugated monoclonal antibody against CD73 (clone AD2, Biolegend) was used. Gating was performed on lymphocytes on the basis of forward and side scattered light.

B1: SB96: CD73-specific alpaca VHH clone, family 1, SEQ ID NO:61; tested as rabbit or human IgG hcAb (antibody)
heavy: DVQLQASGGGLVQPGGSLRLSCTASGFTLDYLSIGWFRQVPGKEREGVSCINSSGGSTNYADSLKGRLTISRDNAKNTVYLQMNSLKPEDTAVYYCAAHKYYYCSNKVEVFDYWGQGTPVTVSS
modifications: left off: a dimerising Fc or GST
notes: tested as rabbit or human IgG hcAb
Soluble human CD73 [1]
  effect on hydrolysis of AMP by soluble CD73: effectively blocked hydrolysis of AMP
Human CD73
  specificity: h + m
[2]
  Epitope: 1
Soluble human CD73 [3]
  Kdis: 3.9e-05 s⁻¹
[4]
  staining of native CD73 on human PBMCs: on most B cells and on a subset of T cells
